Target: T1, catechol-O-methyltransferase (COMT) obtained from rat liver (Rattus norvegicus, UniProt P22734)
T1 construct: from tissue; host or cells: rat liver homogenate
T1 sequence (P22734 1-264): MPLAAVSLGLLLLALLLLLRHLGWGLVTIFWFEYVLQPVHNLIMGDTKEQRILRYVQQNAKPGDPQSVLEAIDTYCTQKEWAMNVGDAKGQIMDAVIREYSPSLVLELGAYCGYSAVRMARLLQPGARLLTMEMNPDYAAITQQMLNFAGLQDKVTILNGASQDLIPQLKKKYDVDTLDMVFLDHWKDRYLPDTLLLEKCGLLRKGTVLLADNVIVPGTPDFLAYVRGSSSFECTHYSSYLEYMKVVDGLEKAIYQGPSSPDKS
Experiment: COMT inhibition, radiochemical assay with rat liver homogenate (Zürcher et al.)
Format: biochemical
Details: rat liver tissue extract; substrate benzene-1,2-diol 2.5 mM, [3H]SAM 183 μM; 15 min preincubation at 37° C., pH 7.6
Method: As mentioned earlier, the compounds of formula I inhibit the enzyme COMT. The inhibitory activity can be determined in vitro with COMT obtained from rat liver. Rat liver homogenate is incubated in the presence of a suitable substrate as described by Zürcher et al. in J. Neurochem. 1982, 38, 191-195 and the COMT activity is measured.
The IC50 values (concentration of the inhibitor at which 50% activity of the enzyme is observed) were determined in a radiochemical assay described by Zürcher et al. (see above) and are listed in Table 1.
IC50 values were determined as follows: The inhibitors were dissolved in Me2SO as 1.2 mM stock solution and further diluted with Me2SO. The reactions were performed in standard polypropylene vials. 25 μl of the inhibitor in varying concentrations from 10^−4 to 10^−9 mol L^−1 were mixed with 215 μl freshly prepared buffer-substrate mixture consisting of 170 μl potassium phosphate buffer (0.1 mol L^−1, pH 7.6), 10 μl MgCl2, (0.1 mol L^−1), 10 μl dithiothreitol (0.065 mol L^−1) and 25 μl of tissue extract. The enzyme preparations were preincubated for 15 min at 37° C. […]
The samples were counted in a Beckmann LS 6000 TA scintillation counter.

Structure (SMILES) | IC50 [nM]
Nc1ncnc2c1ncn2[C@@H]1O[C@H](/C=C/CNC(=O)c2cc(-c3nc4ccccc4s3)cc(O)c2O)C(O)C1O (stereo in doubt) [Example 11, N1-{(E)-3-[(3aR,4R,6R,6aR)-5-(6-amino-9H-purin-9-yl)-3,4-dihydroxytetrahydrofuran-2-yl]prop-2-enyl}-5-benzothiazol-2-yl-2,3-dihydroxy-benzamide] | 29
CC(C)c1cc(O)c(O)c(C(=O)NC/C=C/[C@H]2O[C@@H](n3cnc4c(N)ncnc43)C(O)C2O)c1 (stereo in doubt) [Example 17, N1-{(E)-3-[(3aR,4R,6R,6aR)-5-(6-amino-9H-purin-9-yl)-3,4-dihydroxytetrahydrofuran-2-yl]prop-2-enyl}-5-isopropyl-2,3-dihydroxy-benzamide] | 1370

Reference: patent publication US7319101B2, “COMT inhibitors for the treatment of depression and impaired cognition” (Hoffmann-La Roche Inc., priority 2003, dated 2008)
